{"sequences": {"note": "Sequences of proteins named here, by UniProt entry; tags and fusion partners are left off. Residues count along the entry.", "UniProt P35968, 20-1356": "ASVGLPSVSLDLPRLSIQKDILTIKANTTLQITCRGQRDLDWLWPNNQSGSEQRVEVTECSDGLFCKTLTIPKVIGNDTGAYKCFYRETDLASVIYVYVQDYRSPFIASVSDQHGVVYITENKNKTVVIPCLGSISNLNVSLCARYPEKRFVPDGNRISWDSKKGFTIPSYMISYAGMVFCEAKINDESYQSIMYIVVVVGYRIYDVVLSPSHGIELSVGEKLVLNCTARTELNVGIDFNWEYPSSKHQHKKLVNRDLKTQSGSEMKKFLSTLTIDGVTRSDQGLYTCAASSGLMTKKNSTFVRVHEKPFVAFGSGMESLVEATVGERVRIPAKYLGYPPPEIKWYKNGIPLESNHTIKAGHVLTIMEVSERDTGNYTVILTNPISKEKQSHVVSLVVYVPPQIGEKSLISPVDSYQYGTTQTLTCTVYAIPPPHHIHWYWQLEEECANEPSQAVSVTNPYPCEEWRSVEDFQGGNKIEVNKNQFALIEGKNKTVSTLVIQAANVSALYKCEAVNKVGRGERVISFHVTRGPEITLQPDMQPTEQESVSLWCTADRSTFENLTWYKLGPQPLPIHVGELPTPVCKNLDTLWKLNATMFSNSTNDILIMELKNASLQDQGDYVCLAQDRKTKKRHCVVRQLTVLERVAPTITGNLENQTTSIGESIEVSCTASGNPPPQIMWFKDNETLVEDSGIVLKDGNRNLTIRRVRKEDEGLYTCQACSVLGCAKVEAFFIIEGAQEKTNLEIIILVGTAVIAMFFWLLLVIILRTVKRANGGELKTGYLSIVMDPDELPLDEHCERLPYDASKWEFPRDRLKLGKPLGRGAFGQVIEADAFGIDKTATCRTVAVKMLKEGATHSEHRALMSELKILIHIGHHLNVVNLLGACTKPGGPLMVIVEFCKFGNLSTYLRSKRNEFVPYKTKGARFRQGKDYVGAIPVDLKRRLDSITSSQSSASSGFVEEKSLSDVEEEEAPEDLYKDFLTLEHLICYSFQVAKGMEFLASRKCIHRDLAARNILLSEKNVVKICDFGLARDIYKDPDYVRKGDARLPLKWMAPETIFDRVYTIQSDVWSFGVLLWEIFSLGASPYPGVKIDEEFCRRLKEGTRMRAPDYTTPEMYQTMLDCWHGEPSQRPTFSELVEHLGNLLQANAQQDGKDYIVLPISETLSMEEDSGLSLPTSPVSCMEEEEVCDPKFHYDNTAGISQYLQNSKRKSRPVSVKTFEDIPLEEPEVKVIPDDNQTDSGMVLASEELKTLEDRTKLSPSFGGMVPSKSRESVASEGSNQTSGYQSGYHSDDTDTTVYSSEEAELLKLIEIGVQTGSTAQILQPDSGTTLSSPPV"}, "source": "patent US8334239B2", "about": "“High affinity VEGF-receptor antagonists” (The Board of Regents of the University of Texas System, priority 2007, dated 2012)", "key": {"[1]": {"system": "A673 (human Ewing's sarcoma) tumors", "conditions": "mouse, in vivo"}, "VEGFR2": {"biological_target": "VEGFR2 (Homo sapiens, UniProt P35968)", "test": "GU40C4 cell surface binding assay (biotinylated peptoid, streptavidin quantum dots)", "assay_type": "cell-based", "parameters": "allow the library to be screened against the full-length receptor in as natural an environment as possible; host or cells: PAE/KDR (porcine aortic endothelial cells expressing human KDR)", "conditions": "VEGFR2 overexpressing cells", "experimental": "GU40C4 cell surface binding assay. Different types of cells (PAE/KDR, PAE, Hela, HEK-293, MCF-7, HFF) were grown on each well of chamber slides (Nalge Nunc International) (10,000 cells/chamber) overnight. Washed, and fixed cells with 3.7% formaldehyde and blocked with Startingblock blocking buffer. Each chamber was treated (except the control) with 75 nm biotinylated GU40C4 peptoid followed by Qdot® 655 streptavidin conjugate (Invitrogen). After the final washing, cells were mounted by ProLong® Gold antifade reagent with DAPI (Invitrogen) and visualized under DAPI filter of the fluorescence microscope.\nSpecificity of the GU40C4-VEGFR2 interaction on the cell surface. To evaluate the specificity of the high affinity dimeric peptoid for VEGFR2, various cell types were incubated with biotinylated GU40C4 peptoid and association of the small molecule with the cells was probed using streptavidin conjugated red quantum dots (Qtracker 655) (FIGS. 5A-H). The DAPI-stained nuclei are shown in blue. GU40C4 binding to PAE/KDR cells that overexpress VEGFR2 was seen clearly (FIG. 5A), as expected. […]\nAn important question is whether the peptoid is able to recognize VEGFR2 on the surface of cells when the receptor is expressed at native levels. […] Of these, only MCF-7 expresses significant quantities of the VEGFR2. […]"}}, "note": "Positions of bridges follow the written chain, without caps; N, C: chain ends. Non-standard residues stand in square brackets, D forms with d. Residues, ends and D or L forms follow the SMILES beside them. Chains are numbered I, II in the order given. *: point of attachment. Fluorescein(5-Mal) = O=C1OC2(c3ccc(O)cc3Oc3cc(O)ccc32)c2ccc(N3C(=O)CC(*)C3=O)cc21; Gly(N-piperonyl) = O=C(O)CNCc1ccc2c(c1)OCO2; Nrpe = C[C@@H](NCC(=O)O)c1ccccc1; Nleu = CC(C)CNCC(=O)O; Nlys = NCCCCNCC(=O)O; Ahx = NCCCCCC(=O)O; βAla = NCCC(=O)O", "data": [{"smiles": "CC(C)CN(CC(=O)N(CCCCN)CC(=O)N(CC(=O)N(CC(=O)N(CCCCN)CC(=O)N(CC(=O)N(CCCCN)CC(=O)N(CCCCN)CC(=O)NCCCCCC(=O)NCCC(=O)N[C@@H](CCCCNC(=O)CN(CCCCN)C(=O)CN(CCCCN)C(=O)CN(CC(C)C)C(=O)CN(CCCCN)C(=O)CN(Cc1ccc2c(c1)OCO2)C(=O)CN(C(=O)CN(CCCCN)C(=O)CN(CC(C)C)C(=O)CNCCCCN)[C@H](C)c1ccccc1)C(=O)N[C@@H](CSC1CC(=O)N(c2ccc3c(c2)C(=O)OC32c3ccc(O)cc3Oc3cc(O)ccc32)C1=O)C(N)=O)CC(C)C)Cc1ccc2c(c1)OCO2)[C@H](C)c1ccccc1)C(=O)CNCCCCN", "note": "(stereo partly drawn) [GU40C4] (I: H-[Nlys][Nleu][Nlys][Nrpe][Gly(N-piperonyl)][Nlys][Nleu][Nlys][Nlys][Ahx][βAla]KC(Fluorescein(5-Mal))-NH2 / II: H-[Nlys][Nleu][Nlys][Nrpe][Gly(N-piperonyl)][Nlys][Nleu][Nlys][Nlys]; amide I:12-II:C)", "values": [{"measurement": "reduction of microvessel density", "setting": "[1]", "result": "approximately 50%"}, {"measurement": "tumor growth", "setting": "[1]; sc", "result": "reduced tumor growth rate and significantly smaller tumors"}, {"measurement": "binding to PAE/KDR cells", "setting": "VEGFR2", "result": "seen clearly"}]}]}
